Values quoted from earlier work as cited in article PMC5647227 (ACS chemical neuroscience, 2017).

Protein sequences, listed by entry. Tags and fused reporters are not part of them.
UniProt P25103, whole entry: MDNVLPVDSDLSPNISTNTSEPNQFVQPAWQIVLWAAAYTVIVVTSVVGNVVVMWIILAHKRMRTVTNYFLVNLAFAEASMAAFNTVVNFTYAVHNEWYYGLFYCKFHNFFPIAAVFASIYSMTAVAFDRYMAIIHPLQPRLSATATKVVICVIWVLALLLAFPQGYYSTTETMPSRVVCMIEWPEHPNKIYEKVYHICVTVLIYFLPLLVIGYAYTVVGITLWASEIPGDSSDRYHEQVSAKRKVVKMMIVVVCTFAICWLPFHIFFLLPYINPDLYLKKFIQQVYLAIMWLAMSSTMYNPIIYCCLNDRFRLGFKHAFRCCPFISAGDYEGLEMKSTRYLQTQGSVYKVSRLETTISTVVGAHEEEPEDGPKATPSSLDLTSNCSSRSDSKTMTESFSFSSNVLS

Target: hNK1 receptors (Homo sapiens, UniProt P25103)
Conditions: antagonism of substance P, Schild's equation; ref Ballet et al.[1]; cited from earlier work

## H-Dmt-D-Arg-Aba-Gly-NMe-3′,5′-(CF3)2-Bn [Compound 3]
  NK1R pA2: 7.80
